Reference: paper PMC6935813, “Assessment of the Aromatase Inhibitory Activity of Ma-Huang-Tang (MHT) and Its Active Compounds” (Evidence-based Complementary and Alternative Medicine : eCAM, 2019)

Amino acid sequences for entries named in this document (tags omitted). A change or cut given only in a name is not applied to a line headed by its entry.
UniProt P11511: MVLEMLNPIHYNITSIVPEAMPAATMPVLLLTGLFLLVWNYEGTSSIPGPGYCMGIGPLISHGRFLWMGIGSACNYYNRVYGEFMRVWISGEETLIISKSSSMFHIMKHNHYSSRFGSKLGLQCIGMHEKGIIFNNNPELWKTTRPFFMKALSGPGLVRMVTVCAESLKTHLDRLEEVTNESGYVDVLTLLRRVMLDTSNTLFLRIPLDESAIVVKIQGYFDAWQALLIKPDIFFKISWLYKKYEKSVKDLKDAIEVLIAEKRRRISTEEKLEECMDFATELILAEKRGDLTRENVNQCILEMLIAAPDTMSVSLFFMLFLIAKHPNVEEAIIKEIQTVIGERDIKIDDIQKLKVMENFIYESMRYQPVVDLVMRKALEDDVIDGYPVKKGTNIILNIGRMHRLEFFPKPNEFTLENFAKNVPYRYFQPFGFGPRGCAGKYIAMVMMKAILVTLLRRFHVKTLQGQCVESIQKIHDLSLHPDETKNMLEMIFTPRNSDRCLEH

Tests used:
aromatase [1] = target: T1, aromatase (Homo sapiens, UniProt P11511); assay: Cell-based aromatase assay: estrone ELISA in KGN cells given androstenedione; settings: estrone level by ELISA; maximum con. 5 mM; read-out: Aromatase inhibition IC50 in KGN cells
Protocol: The human granulosa-like tumor cell line KGN was obtained from RIKEN BioResource Center (Ibaraki, JPN). The cells were grown in Dulbecco's modified Eagle's medium/Ham's F-12 nutrient mix ([…], KOR) supplemented with 5% (v/v) fetal bovine serum (FBS) and 0.5% antibiotics (100 U/mL penicillin and 100 μg/mL streptomycin, Gibco BRL, NY, USA) in a humidified atmosphere of 5% CO2 at 37°C. Prior to treatment with MHT and its components in all the experiments, the cells were cultured for 24 h by switching to phenol-red free DMEM/H-12 medium ([…], KOR) with 5% (v/v) charcoal-stripped FBS (HyClone, Logan, UT, USA), and the samples were treated under the same conditions. Cells (4 × 10^4 cells/mL) were placed on a 96-well tissue culture plate and incubated in DMEM/F-12 medium with 5% charcoal-stripped FBS (HyClone, Logan, UT, USA) overnight. After the addition of MHT or its components, the cells were incubated for 24 h. […] Fractions of the supernatant were harvested and transferred to a new Eppendorf tube.

aromatase [2] = target: T1, aromatase; assay: Cell-free fluorescence-based aromatase inhibition assay (DBF hydrolysis); settings: read-out: Aromatase inhibition IC50, DBF substrate, human CYP19 Supersomes

Compound	IC50 (aromatase [1]) [µM]	IC50 (aromatase [2]) [µM]
O=C1C[C@@H](c2ccc(O[C@@H]3O[C@H](CO)[C@@H](O)[C@H](O)[C@H]3O)cc2)Oc2cc(O)ccc21 [Liquiritin (5), liquiritin]	499	–
liquiritin apioside [Liquiritin apioside (6)]	522	508
